The text below walks through data of patent US20120115880A1.

The target of this assay is p53 (endogenous wild-type p53 of human retinoblastoma cells and human fetal retinal cells) (human) (UniProt P04637). The assay is described as follows: cell-based or functional assay.

The substance “MDM2 (ectopically expressed from an MDM2 cDNA vector in Y79 cells)” registered a luciferase activity of the p53 reporter construct PG13 in retinoblastoma (Y79) cells of 11 fold.
